Experimental data: ChEMBL document CHEMBL6103605, “Discovery of First-in-Class BAZ2A/B and BAZ2B-Selective Degraders” (ACS Med Chem Lett, 2025)
Active and inactive are the calls of the source. The calls are words filed in the database; no cut-off is given here.

Sequences of proteins named here, by UniProt entry; tags and fusion partners are left off. A change or cut given only in a name is not applied to a line headed by its entry.
UniProt Q9UIF9: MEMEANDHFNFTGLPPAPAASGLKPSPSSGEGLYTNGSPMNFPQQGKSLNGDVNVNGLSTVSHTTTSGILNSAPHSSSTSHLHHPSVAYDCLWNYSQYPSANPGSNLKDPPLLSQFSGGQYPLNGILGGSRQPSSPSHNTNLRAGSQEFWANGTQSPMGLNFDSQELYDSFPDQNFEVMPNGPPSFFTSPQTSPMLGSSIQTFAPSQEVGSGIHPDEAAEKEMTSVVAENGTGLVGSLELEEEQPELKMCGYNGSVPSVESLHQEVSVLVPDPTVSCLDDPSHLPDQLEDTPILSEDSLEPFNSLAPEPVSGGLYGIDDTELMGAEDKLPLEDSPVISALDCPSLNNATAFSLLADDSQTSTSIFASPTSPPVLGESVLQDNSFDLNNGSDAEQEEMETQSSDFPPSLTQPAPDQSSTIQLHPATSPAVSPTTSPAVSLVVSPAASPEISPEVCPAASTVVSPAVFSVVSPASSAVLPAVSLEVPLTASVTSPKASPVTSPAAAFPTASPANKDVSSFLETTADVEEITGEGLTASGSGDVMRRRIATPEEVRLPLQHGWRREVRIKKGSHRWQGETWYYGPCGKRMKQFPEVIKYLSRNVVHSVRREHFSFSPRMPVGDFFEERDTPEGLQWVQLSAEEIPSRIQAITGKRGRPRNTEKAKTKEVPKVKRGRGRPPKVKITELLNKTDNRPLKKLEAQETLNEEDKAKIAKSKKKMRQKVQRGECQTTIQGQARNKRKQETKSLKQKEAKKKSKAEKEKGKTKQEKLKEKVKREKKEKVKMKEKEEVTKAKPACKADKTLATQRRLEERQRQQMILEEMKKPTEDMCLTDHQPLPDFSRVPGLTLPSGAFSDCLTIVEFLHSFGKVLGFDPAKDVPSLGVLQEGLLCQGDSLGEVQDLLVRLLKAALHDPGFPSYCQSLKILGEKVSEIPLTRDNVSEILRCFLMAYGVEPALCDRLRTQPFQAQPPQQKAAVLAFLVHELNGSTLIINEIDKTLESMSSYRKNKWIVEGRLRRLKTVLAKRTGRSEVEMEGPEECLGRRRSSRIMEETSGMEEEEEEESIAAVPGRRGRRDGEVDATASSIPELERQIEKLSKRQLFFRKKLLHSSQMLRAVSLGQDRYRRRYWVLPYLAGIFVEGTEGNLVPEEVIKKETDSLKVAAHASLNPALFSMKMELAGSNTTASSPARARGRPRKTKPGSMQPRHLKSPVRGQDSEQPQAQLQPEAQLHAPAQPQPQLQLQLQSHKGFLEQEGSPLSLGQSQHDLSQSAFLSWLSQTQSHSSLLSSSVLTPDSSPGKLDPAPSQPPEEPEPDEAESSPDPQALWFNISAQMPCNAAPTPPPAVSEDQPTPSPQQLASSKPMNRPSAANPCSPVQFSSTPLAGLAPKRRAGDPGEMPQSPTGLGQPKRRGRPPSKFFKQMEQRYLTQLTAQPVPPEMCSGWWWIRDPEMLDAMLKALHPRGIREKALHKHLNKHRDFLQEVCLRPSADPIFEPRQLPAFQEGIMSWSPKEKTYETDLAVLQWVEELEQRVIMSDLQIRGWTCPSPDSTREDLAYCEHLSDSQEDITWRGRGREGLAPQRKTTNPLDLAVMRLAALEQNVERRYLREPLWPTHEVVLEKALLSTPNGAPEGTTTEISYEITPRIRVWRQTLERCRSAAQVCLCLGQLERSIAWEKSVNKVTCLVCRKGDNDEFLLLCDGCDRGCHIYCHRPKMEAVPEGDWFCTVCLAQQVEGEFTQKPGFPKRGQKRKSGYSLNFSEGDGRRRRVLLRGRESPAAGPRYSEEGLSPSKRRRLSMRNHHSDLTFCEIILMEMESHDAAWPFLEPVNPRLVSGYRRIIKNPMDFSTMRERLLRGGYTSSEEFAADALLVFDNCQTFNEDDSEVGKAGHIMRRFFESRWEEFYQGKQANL
UniProt P40337, whole entry, looked up: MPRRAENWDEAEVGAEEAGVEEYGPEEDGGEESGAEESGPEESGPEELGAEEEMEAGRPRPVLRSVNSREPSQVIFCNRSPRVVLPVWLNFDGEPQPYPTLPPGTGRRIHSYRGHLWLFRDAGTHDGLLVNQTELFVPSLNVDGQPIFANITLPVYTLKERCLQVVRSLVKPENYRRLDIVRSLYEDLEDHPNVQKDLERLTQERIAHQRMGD
UniProt Q9UIF8: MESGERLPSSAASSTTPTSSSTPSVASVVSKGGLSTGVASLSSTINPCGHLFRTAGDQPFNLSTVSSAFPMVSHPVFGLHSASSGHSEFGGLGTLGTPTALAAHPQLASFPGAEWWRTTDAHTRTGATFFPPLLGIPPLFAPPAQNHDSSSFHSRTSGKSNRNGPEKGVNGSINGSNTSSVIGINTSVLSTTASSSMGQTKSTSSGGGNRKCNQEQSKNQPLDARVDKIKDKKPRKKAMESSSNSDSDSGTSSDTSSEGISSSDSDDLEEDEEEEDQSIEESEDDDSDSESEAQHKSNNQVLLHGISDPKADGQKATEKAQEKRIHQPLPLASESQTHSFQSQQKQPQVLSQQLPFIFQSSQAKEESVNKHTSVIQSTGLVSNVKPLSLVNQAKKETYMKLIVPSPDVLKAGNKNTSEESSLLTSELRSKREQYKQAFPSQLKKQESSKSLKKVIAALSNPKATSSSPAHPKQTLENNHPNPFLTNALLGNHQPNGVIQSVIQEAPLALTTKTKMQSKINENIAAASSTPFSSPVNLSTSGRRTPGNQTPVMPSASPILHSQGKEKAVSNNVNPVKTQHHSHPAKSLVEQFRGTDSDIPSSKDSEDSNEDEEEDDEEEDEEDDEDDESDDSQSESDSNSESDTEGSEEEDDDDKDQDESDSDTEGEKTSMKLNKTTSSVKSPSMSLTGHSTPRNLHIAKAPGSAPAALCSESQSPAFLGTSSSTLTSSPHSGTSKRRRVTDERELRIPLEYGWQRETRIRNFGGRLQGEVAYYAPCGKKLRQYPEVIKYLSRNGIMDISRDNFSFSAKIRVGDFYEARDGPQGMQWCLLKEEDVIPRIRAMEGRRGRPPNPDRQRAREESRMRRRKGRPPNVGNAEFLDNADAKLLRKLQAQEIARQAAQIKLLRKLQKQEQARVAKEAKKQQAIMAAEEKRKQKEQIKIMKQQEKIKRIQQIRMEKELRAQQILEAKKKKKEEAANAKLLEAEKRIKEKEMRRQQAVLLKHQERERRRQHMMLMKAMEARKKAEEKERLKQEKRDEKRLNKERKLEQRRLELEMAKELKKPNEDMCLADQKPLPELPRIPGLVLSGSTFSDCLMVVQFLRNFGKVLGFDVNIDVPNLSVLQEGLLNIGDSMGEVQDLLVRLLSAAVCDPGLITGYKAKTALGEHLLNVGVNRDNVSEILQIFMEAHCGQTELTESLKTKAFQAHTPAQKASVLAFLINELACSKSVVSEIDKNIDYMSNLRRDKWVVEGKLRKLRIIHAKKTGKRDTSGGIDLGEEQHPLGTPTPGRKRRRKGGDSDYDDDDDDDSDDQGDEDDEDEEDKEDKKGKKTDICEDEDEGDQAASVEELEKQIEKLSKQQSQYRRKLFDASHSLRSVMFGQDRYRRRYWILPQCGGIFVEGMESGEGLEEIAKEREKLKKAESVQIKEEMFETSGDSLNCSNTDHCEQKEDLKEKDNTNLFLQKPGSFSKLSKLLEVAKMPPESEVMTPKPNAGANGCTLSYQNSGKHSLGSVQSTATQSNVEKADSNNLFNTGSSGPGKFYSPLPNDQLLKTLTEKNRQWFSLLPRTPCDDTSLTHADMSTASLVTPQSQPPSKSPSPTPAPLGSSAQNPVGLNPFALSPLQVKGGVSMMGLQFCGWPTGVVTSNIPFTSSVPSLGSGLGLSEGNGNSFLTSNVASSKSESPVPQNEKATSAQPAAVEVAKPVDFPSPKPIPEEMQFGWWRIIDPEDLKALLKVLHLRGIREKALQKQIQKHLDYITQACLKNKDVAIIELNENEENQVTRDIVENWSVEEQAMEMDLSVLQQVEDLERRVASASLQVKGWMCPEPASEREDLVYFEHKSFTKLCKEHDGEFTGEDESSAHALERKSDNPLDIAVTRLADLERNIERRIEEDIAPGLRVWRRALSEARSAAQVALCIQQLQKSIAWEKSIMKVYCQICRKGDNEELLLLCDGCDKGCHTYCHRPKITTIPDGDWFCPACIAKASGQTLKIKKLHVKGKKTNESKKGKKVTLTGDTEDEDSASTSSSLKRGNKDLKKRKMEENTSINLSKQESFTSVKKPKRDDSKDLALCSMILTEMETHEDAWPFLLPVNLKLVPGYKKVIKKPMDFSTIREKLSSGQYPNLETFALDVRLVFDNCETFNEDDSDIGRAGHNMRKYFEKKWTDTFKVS

Tests used:
[1] = biological target: T1, von Hippel-Lindau disease tumor suppressor/Bromodomain adjacent to zinc finger domain protein 2A (Homo sapiens, UniProt Q9UIF9+P40337); test: PROTAC activity at BAZ2A/VHL in human PC-3 cells assessed as degradation at 1 uM after 4 hrs by Western blot analysis; assay type: cell-based
[2] = biological target: T2, von Hippel-Lindau disease tumor suppressor/Bromodomain adjacent to zinc finger domain protein 2B (Homo sapiens, UniProt Q9UIF8+P40337); test: PROTAC activity at BAZ2B/VHL in human PC-3 cells assessed as degradation at 1 uM after 4 hrs by Western blot analysis; assay type: cell-based
[3] = biological target: T2, von Hippel-Lindau disease tumor suppressor/Bromodomain adjacent to zinc finger domain protein 2B; test: PROTAC activity at BAZ2B/VHL in human PC-3 cells assessed as degradation at 0.25 uM after 4 hrs by Western blot analysis; assay type: cell-based
[4] = biological target: T1, von Hippel-Lindau disease tumor suppressor/Bromodomain adjacent to zinc finger domain protein 2A; test: PROTAC activity at BAZ2A/VHL in human PC-3 cells assessed as BAZ2A degradation at 0.25 uM after 4 hrs by Western blot analysis; assay type: cell-based
[5] = biological target: T2, von Hippel-Lindau disease tumor suppressor/Bromodomain adjacent to zinc finger domain protein 2B; test: PROTAC activity at BAZ2B/VHL in human PC-3 cells assessed as degradation at 1 uM after 2 to 72 hrs by western blot analysis; assay type: cell-based; conditions: time 2-72 hrs
[6] = biological target: T1, von Hippel-Lindau disease tumor suppressor/Bromodomain adjacent to zinc finger domain protein 2A; test: PROTAC activity at BAZ2A/VHL in human PC-3 cells assessed as degradation at 1 uM after 2 to 72 hrs by western blot analysis; assay type: cell-based; conditions: time 2-72 hrs
[7] = biological target: T1, von Hippel-Lindau disease tumor suppressor/Bromodomain adjacent to zinc finger domain protein 2A; test: PROTAC activity at BAZ2A/VHL in human PC-3 cells assessed as hook effect at 10 uM after 4 hrs by Western blot analysis; assay type: cell-based
[8] = biological target: T2, von Hippel-Lindau disease tumor suppressor/Bromodomain adjacent to zinc finger domain protein 2B; test: PROTAC activity at BAZ2B/VHL in human PC-3 cells assessed as maximum degradation after 4 hrs by Western blot analysis relative to control; assay type: cell-based
MM1.S = test: Effect on BAZ2A mRNA level in human MM1.S cells at 0.25 uM measured after 4 hrs by RT-qPCR analysis; assay type: functional, cell-based
[9] = biological target: T2, von Hippel-Lindau disease tumor suppressor/Bromodomain adjacent to zinc finger domain protein 2B; test: PROTAC activity at BAZ2B/VHL in human PC-3 cells assessed as protein depletion at 1 uM after 4 hrs by Western blot analysis relative to control; assay type: cell-based
[10] = biological target: T2, von Hippel-Lindau disease tumor suppressor/Bromodomain adjacent to zinc finger domain protein 2B; test: PROTAC activity at BAZ2B/VHL in human MM1.S cells assessed as BAZ2B degradation at 0.25 uM after 4 hrs by western blot analysis; assay type: cell-based
[11] = biological target: T1, von Hippel-Lindau disease tumor suppressor/Bromodomain adjacent to zinc finger domain protein 2A; test: PROTAC activity at BAZ2A/VHL in human PC-3 cells assessed as BAZ2A degradation at 1 uM after 4 hrs by Western blot analysis; assay type: cell-based
[12] = biological target: T2, von Hippel-Lindau disease tumor suppressor/Bromodomain adjacent to zinc finger domain protein 2B; test: PROTAC activity at BAZ2B/VHL in human PC-3 cells assessed as hook effect at 10 uM after 4 hrs by Western blot analysis; assay type: cell-based
[13] = biological target: T1, von Hippel-Lindau disease tumor suppressor/Bromodomain adjacent to zinc finger domain protein 2A; test: PROTAC activity at BAZ2A/VHL in human PC-3 cells assessed as maximal degradation at 1 uM after 48 hrs by western blot analysis; assay type: cell-based
[14] = biological target: T1, von Hippel-Lindau disease tumor suppressor/Bromodomain adjacent to zinc finger domain protein 2A; test: PROTAC activity at BAZ2A/VHL in human PC-3 cells assessed as degradation at 0.25 uM after 4 hrs in the presence of MG132 by Western blot analysis; assay type: cell-based
[15] = biological target: T1, von Hippel-Lindau disease tumor suppressor/Bromodomain adjacent to zinc finger domain protein 2A; test: PROTAC activity at BAZ2A/VHL in human PC-3 cells assessed as induction of BAZ2A degradation at 0.25 uM after 4 hrs by Western blot analysis; assay type: cell-based
[16] = biological target: T1, von Hippel-Lindau disease tumor suppressor/Bromodomain adjacent to zinc finger domain protein 2A; test: PROTAC activity at BAZ2A/VHL in human PC-3 cells assessed as remaining protein at 1 uM after 4 hrs by Western blot analysis relative to control; assay type: cell-based
PC-3 = test: Effect on BAZ2A mRNA level in human PC-3 cells at 0.25 uM measured after 4 hrs by RT-qPCR analysis; assay type: functional, cell-based
[17] = biological target: T1, von Hippel-Lindau disease tumor suppressor/Bromodomain adjacent to zinc finger domain protein 2A; test: PROTAC activity at BAZ2A/VHL in human PC-3 cells assessed as degradation at 0.25 uM after 4 hrs in the presence of BAZ2-ICR by Western blot analysis; assay type: cell-based
[18] = biological target: T1, von Hippel-Lindau disease tumor suppressor/Bromodomain adjacent to zinc finger domain protein 2A; test: PROTAC activity at BAZ2A/VHL in human PC-3 cells assessed as degradation at 0.25 uM after 4 hrs in the presence of VH032 by Western blot analysis; assay type: cell-based
[19] = biological target: T2, von Hippel-Lindau disease tumor suppressor/Bromodomain adjacent to zinc finger domain protein 2B; test: PROTAC activity at BAZ2B/VHL in human PC-3 cells assessed as remaining protein at 1 uM after 4 hrs by Western blot analysis relative to control; assay type: cell-based
[20] = biological target: T1, von Hippel-Lindau disease tumor suppressor/Bromodomain adjacent to zinc finger domain protein 2A; test: PROTAC activity at BAZ2A/VHL in human PC-3 cells assessed as maximum degradation after 4 hrs by Western blot analysis relative to control; assay type: cell-based
[21] = biological target: T1, von Hippel-Lindau disease tumor suppressor/Bromodomain adjacent to zinc finger domain protein 2A; test: PROTAC activity at BAZ2A/VHL in human PC-3 cells assessed as degradation at 1 uM after 4 hrs in the presence of VH032 by Western blot analysis; assay type: cell-based
[22] = biological target: T1, von Hippel-Lindau disease tumor suppressor/Bromodomain adjacent to zinc finger domain protein 2A; test: PROTAC activity at BAZ2A/VHL in human MM1.S cells assessed as BAZ2A degradation at 1 uM after 4 hrs by western blot analysis; assay type: cell-based
[23] = biological target: T1, von Hippel-Lindau disease tumor suppressor/Bromodomain adjacent to zinc finger domain protein 2A; test: PROTAC activity at BAZ2A/VHL in human PC-3 cells assessed as degradation at 1 uM after 4 hrs in the presence of BAZ2-ICR by Western blot analysis; assay type: cell-based
[24] = biological target: T2, von Hippel-Lindau disease tumor suppressor/Bromodomain adjacent to zinc finger domain protein 2B; test: PROTAC activity at BAZ2B/VHL in human MM1.S cells assessed as BAZ2B degradation at 1 uM after 4 hrs by western blot analysis; assay type: cell-based
[25] = biological target: T1, von Hippel-Lindau disease tumor suppressor/Bromodomain adjacent to zinc finger domain protein 2A; test: PROTAC activity at BAZ2A/VHL in human PC-3 cells assessed as degradation at 1 uM after 4 hrs in the presence of MG132 by Western blot analysis; assay type: cell-based
[26] = biological target: T1, von Hippel-Lindau disease tumor suppressor/Bromodomain adjacent to zinc finger domain protein 2A; test: PROTAC activity at BAZ2A/VHL in human PC-3 cells assessed as protein depletion at 1 uM after 4 hrs by Western blot analysis relative to control; assay type: cell-based

SMILES | Activity [1] | Activity [2] | Activity [3] | Activity [4] | Activity [5] [%] | Activity [6] [%] | Activity [7] | Emax [8] [%] | Activity [9] [%] | Activity [12] | Activity [16] [%] | Activity [19] [%] | other results
Cc1ncsc1-c1ccc(CNC(=O)[C@@H]2C[C@H](O)CN2C(=O)[C@@H](NC(=O)C2(F)CC2)C(C)(C)SC[C@H]2CC[C@H](COCc3nc(-c4cnn(C)c4)c(-c4ccc(C#N)cc4)n3CCc3ccn(C)n3)CC2)cc1 | inactive | inactive |  |  |  |  |  |  |  |  |  |  | 
Cc1ncsc1-c1ccc(CNC(=O)[C@@H]2C[C@H](O)CN2C(=O)[C@@H](NC(=O)C2(F)CC2)C(C)(C)C)c(OC[C@H]2CC[C@H](COCc3nc(-c4cnn(C)c4)c(-c4ccc(C#N)cc4)n3CCc3cnn(C)c3)CC2)c1 |  |  | inactive | inactive |  |  |  |  |  |  |  |  | 
Cc1ncsc1-c1ccc(CNC(=O)[C@@H]2C[C@@H](O)CN2C(=O)[C@@H](NC(=O)C2(F)CC2)C(C)(C)C)c(OC[C@H]2CC[C@H](COCc3nc(-c4cnn(C)c4)c(-c4ccc(C#N)cc4)n3CCc3cnn(C)c3)CC2)c1 |  |  | > 92% | inactive | > 84 | > 84 | Active | > 95 | < 90 | Active | 190 | 10.5 | Activity (MM1.S): inactive; Activity [10]: Active; Activity [11]: inactive; Activity [13]: Active; Activity [14]: inactive; Activity [15]: inactive; Activity (PC-3): inactive; Activity [17]: inactive; Activity [18]: inactive
Cc1ncsc1-c1ccc(CNC(=O)[C@@H]2C[C@@H](O)CN2C(=O)[C@@H](NC(=O)C2(F)CC2)C(C)(C)SC[C@H]2CC[C@H](COCc3nc(-c4cnn(C)c4)c(-c4ccc(C#N)cc4)n3CCc3cnn(C)c3)CC2)cc1 | > 92% | > 92% |  |  | > 84 | > 84 | Active | > 99 | 92 | Active | 7.6 | 7.8 | Emax [20]: > 97%; Activity [21]: inactive; Activity [22]: Active; Activity [23]: inactive; Activity [24]: Active; Activity [25]: inactive; Activity [26]: 92%
